Experimental data: patent US5705398A, “Methods for identifying inhibitors of LPS-mediated LBP binding” (The Scripps Research Institute, priority 1994, dated 1998)

Amino acid sequences for entries named in this document (tags omitted). Residues count along the entry.
UniProt P08571, 20-375: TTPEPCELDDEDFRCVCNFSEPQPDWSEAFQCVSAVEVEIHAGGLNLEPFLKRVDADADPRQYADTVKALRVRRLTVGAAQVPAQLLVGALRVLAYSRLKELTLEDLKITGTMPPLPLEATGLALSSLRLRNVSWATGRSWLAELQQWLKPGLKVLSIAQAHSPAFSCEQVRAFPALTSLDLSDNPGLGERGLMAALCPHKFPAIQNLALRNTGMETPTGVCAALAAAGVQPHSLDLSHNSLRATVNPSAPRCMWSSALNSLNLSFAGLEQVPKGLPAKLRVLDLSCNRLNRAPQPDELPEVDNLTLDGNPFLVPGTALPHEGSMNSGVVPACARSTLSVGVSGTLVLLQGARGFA

Target: T1, recombinant human soluble CD14 (Homo sapiens, UniProt P08571)
T1 construct: made in house; host or cells: CHO cells (clone 523, vector pEE14), secreted into culture medium
Experiment: F-LPS/CD14 fluorescence assay comparing LBP with other LPS-binding proteins
Conditions: protein 300 ng/ml, CD14 0 to 10 ug/ml, 20 ng/ml F-LPS
Protocol: The FI effects via the binding of F-LPS to LBP were also compared in the present assay with other proteins shown to bind LPS including human serum albumin (HSA), apotransferrin, lysozyme, and bactericidal-permeability increasing protein (BPI) in place of polypeptide. For the assay, LBP or the other known LPS-binding proteins were added to the admixture at a concentration of 300 nanograms/milliliter (ng/ml) and were separately admixed with varying amounts the recombinant human soluble CD14 ranging in concentration from 0 to 10 micrograms/milliliter (ug/ml).
To this admixture, 20 ng/ml of F-LPS prepared in Example 1 were admixed to form a binding admixture. Fluorescence measurements were then performed as described above to determine the effect of LBP and CD14 on the FI of F-LPS.

effect on FI of F-LPS with CD14 when replacing LBP: no effect was detected
Substance: human serum albumin
